miR-21 FLuc – raises the signal of a miR-21 reporter; HeLa miR-21 FLuc reporter, luciferase, 48 h; Potency, µM (top dose mostly 38.3 µM), for inactives: at the highest dose reporter change, positive = more light; AID 2288; 340,000 tested, under 10 active; active = well fitted rising curve with a large enough effect; inconclusive = small, poorly fitted or top-dose-only effect; inactive = no such curve, though single readings can be large or run the other way;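 note: % of control where 0% means no effect; miR-21 action dims this reporter so a rising signal means less miR-21 action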
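HeLa miR-21-FLuc reporter line, endogenous miR-21; 2000 cells/well in DMEM/10% FBS; compound titration up to ~40uM final, 48 h, 37 degree Celsius; luciferase detection reagent, 15 min lysis, CCD luminescence.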
Nrf2 inh – blocks Nrf2 signaling; AID 504444; 2.1% of 360,000 active; Potency, µM (titrated, usually from 46 µM), inactives show at the highest dose activity change, negative = inhibition, actives largely listed as inhibitors; A549 ARE-Fluc reporter, luciferase luminescence, 18-24 h; also: potency is read from the fitted curve at half-maximal effect; % is scaled to controls: 0 for no effect and ±100 for the full control effect; nearly all actives have a fitted effect of over 60% in size
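Cells were seeded and rested 2 h, then exposed to compounds for 18-24 h. CellTiter-Fluor was read first as a viability measure. BugLite was added 15 min before the final luminescent read of ARE-luciferase activity in A549 cells.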
A549 tox – A549 cytotoxicity, counter-screen for Nrf2 inhibitors; Potency, µM (highest dose often 46 µM), for the others: top-dose activity change, negative = cytotoxicity, actives largely listed as inhibitors; A549 ARE-Fluc cells, CellTiter-Fluor viability, 18-24 h; 0.16% of 390,000 active; AID 504648; also: potency is read from the fitted curve at half-maximal effect; % is scaled to controls: 0 for no effect and ±100 for the full control effect
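A549 ARE-Fluc cells in 5% FBS OPTI-MEM, 5000 cells/well, rested 2 h then exposed to compounds in concentration-response for 18-24 h at 37 °C. Viability by CellTiter-Fluor fluorescence (Ex 405/Em 525) after 30 min; luciferase luminescence (BugLite, 15 min, RT) read afterwards.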
Nrf2 activator – activators of Nrf2 (ARE) signaling. AREc32 ARE-luciferase reporter (MCF7-derived line), luminescence, 24 h. Potency, µM (doses to about 46.1 µM), for inactives: at the highest dose activation, usual class: activators. 0.31% of 410,000 active. AID 624171; also: potency is read from the fitted curve at half-maximal effect; % of control where 0% means no effect; nearly all actives have a fitted effect of over 65% in size
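Quantitative high-throughput format: AREc32 reporter cells, 1000 per well, received compound by pin transfer and were incubated 24 hr at 37 deg C, 5% CO2, before Steady-Glo luminescence detection.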
Glioma ERSR ind – ER stress response induction in glioma; 0.02% of 420,000 active; U87-MG GRP78 promoter luciferase reporter, 16 h; Potency, µM, for the others: at the top dose activation, hits mostly activators; also: potency is read from the fitted curve at half-maximal effect; series mostly up to about 76 µM; % of control where 0% means no effect; nearly all actives have a fitted effect of over 35% in size
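Stably transfected U87-MG human glioma cells carrying a GRP78-based luminescent sensor were seeded at 1000 cells/well, pin-dosed with compounds and incubated 16 h. Luciferase reagent was then added, and end-point luminescence was read after 10 min at room temperature.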
Mito fusion yeast – inhibitors of mitochondrial division or activators of mitochondrial fusion | 0.23% of 320,000 active | Potency, µM (highest dose often 46.1 µM), for inactives: at the highest dose growth rescue (activation), hits mostly activators | S. cerevisiae fusion-defective mutant growth rescue, CellTiterGlo 48 h | AID 485298; also: potency is read from the fitted curve at half-maximal effect; % of control where 0% means no effect; nearly all actives have a fitted effect of over 45% in size
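S. cerevisiae fusion-defective temperature-sensitive mutants (e.g. fzo1-1, mgm1-5) grown 48 h at 37C in YPEG (ethanol/glycerol non-fermentable) medium with 23 nl compound per well; growth rescue read as CellTiterGlo luminescence.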
The depositor's hits bear a star; ? = inconclusive; / = not tested or not shown; [ ] = remark or other dose. Hits are enriched below; roughly 2.3% of the tested compounds scored in any of these assays. Unless noted, calls follow the shape of the dose curve; as a rule, active = well fitted curve in the direction sought with a large enough effect; inconclusive = small, poorly fitted or top-dose-only effect, or another doubt; inactive = no such curve, though single readings can be large; an effect the other way counts as inactive or inconclusive.

SMILES	miR-21 FLuc	Nrf2 inh	A549 tox	Nrf2 activator	Glioma ERSR ind	Mito fusion yeast
Cc1ccccc1Cn1cc(NC(=O)c2noc3c2CC(C(C)(C)C)CC3)cn1 (stereo not drawn)	-10.6%	?	?	-0.6%	-6.2%	2.2%
Cc1ccc(OC(C)c2nnc(N)s2)cc1Cl (stereo not drawn)	4.5%	16.4µM*	-5.1%	0.5%	-1.3%	5.4%
CCOC(=O)Cn1c(=O)n(CC2CCCO2)c2nc(-c3ccccc3OC)nc(C(N)=O)c21 (stereo not drawn)	2.0%	/	6.4%	-0.2%	-2.2%	/
Cc1ccc2c(c1)N(S(=O)(=O)c1ccc(CN3C(=O)c4cccnc4C3=O)s1)CCO2	9.3%	?	10.5%	-0.3%	-3.9%	1.2%
Cc1ccc2c(c1)N(S(=O)(=O)c1ccc(CN3C(=O)c4cccnc4C3=O)cc1)CCO2	0.7%	-3.6%	-5.2%	0.2%	-1.9%	11.2µM*
Cc1ccc(C)c(N2CCN(C(=O)Cc3cn(C)c4ccccc34)CC2)c1	-2.3%	20.6µM*	?	2.6%	0.1%	?
Cc1ccc(Cl)cc1N1CCN(C(=O)Cc2cn(C)c3ccccc23)CC1	29.2%	?	-20.6%	-0.2%	-7.6%	?
CCOC(=O)c1[nH]cnc1C(=O)Nc1ccc([N+](=O)[O-])cc1	8.7%	-8.6%	-0.4%	0.1%	-0.3%	-7.3%
CCCCc1nnc(NC(=O)c2oc3ccc(OC)cc3c2C)s1	/	-2.8%	0.6%	-0.6%	0.8%	-5.0%
COCC(C)n1c(C)cc(C(=O)COc2ccc(N(C)S(=O)(=O)c3ccc(NC(C)=O)cc3)cc2)c1C (stereo not drawn)	/	-6.7%	1.7%	9.9%	0.2%	-12.1%
C=CCn1c(C)cc(C(=O)COc2ccc(N(C)S(=O)(=O)c3ccc(NC(C)=O)cc3)cc2)c1C	/	16.4µM*	-22.7%	25.5%	-6.1%	/
COc1ccc(C(C(=O)Nc2ccc(C(C)C)cc2)N(C)C(=O)Cc2cccs2)cc1 (stereo not drawn)	?	8.1%[9.27 µM]	-2.4%	5.2%	-3.2%	/

Three entries out of the list, sorted by number of heavy atoms, smallest number first.
SMILES	miR-21 FLuc	Nrf2 inh	A549 tox	Nrf2 activator	Glioma ERSR ind	Mito fusion yeast
Cc1ccc2c(c1)N(S(=O)(=O)c1ccc(CN3C(=O)c4cccnc4C3=O)cc1)CCO2	0.7%	-3.6%	-5.2%	0.2%	-1.9%	11.2µM*
CCOC(=O)Cn1c(=O)n(CC2CCCO2)c2nc(-c3ccccc3OC)nc(C(N)=O)c21 (stereo not drawn)	2.0%	/	6.4%	-0.2%	-2.2%	/
C=CCn1c(C)cc(C(=O)COc2ccc(N(C)S(=O)(=O)c3ccc(NC(C)=O)cc3)cc2)c1C	/	16.4µM*	-22.7%	25.5%	-6.1%	/

The results go on:
SMILES	miR-21 FLuc	Nrf2 inh	A549 tox	Nrf2 activator	Glioma ERSR ind	Mito fusion yeast
C#Cc1ccc([C@@H]2C=C(C(=O)N3CCOCC3)O[C@H](OCCCCO)C2)cc1	-7.1%	12.0%	-4.2%	-0.5%	-1.3%	-3.4%
O=C(N/N=C/c1ccc2c(c1)OCO2)c1ccc2c(c1)OCO2	-15.1%	20.2%	1.5%	-0.1%	4.0%	-0.4%
O=C(N/N=C\c1cccc(OC(=O)c2ccco2)c1)c1ccc2c(c1)OCO2	-10.7%	2.31µM*	-1.6%	-0.1%	-7.1%	2.6%
O=C(N/N=C/c1cccc(O)c1)c1ccc2c(c1)OCCO2	14.2%	0.411µM*	0.5%	0.4%	-10.6%	16.9%
O=C(N/N=C\c1ccc2c(c1)OCO2)c1ccco1	-52.2%	?	-2.8%	0.0%	-5.6%	-1.7%
Cc1nn(-c2ccccc2)c2c1C(c1ccc(O)c(O)c1)N1C(=N2)C(Nc2ccccc2)=Nc2ccccc21 (stereo not drawn)	19.8%	-2.2%	-7.5%	0.5%	-3.2%	26.2%
Cc1ccc(NC2=Nc3ccccc3N3C2=Nc2c(c(C)nn2-c2ccccc2)C3c2ccc(O)c(O)c2)cc1 (stereo not drawn)	26.6%	18.4µM*	?	-1.5%	-3.0%	22.7%
COc1cccc(CNC(=O)CN2CCC(c3nc4ccc(C)cc4[nH]3)CC2)c1	-30.1%	16.4µM*	0.5%	0.4%	-1.1%	-4.2%
COc1ccccc1NC(=O)CN1CCC(c2nc3ccc(C)cc3[nH]2)CC1	0.1%	-4.1%	-0.7%	0.4%	2.3%	-1.2%
COc1ccc(Br)cc1/C(C)=N/NC1=NCCN1	24.8%	11.6µM*	0.9%	4.8%	-0.1%	3.1%
CC1=C(C)C(C)=C(C#N)C(=C(C#N)C#N)N1	-2.1%	-12.5%	2.9%	0.1%	-1.8%	-0.5%
O=C(NCC1CCCO1)C(c1cccs1)N(Cc1ccccc1Cl)C(=O)c1ccc(-c2ccccc2)[nH]1 (stereo not drawn)	9.6%	23.1µM*	-6.3%	0.2%	-5.0%	25.9%

Screening data from PubChem.
